Assay results: PubChem BioAssay AID720543 (The Scripps Research Institute Molecular Screening Center, 2013)
Only a part is listed here, and it is no random draw. Activity calls are given as the source filed them.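 Rule for the calls: active = inhibition exceeding the mean over every tested compound plus 3 SD (cut at about 30% in these data); inactive = the rest.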

Sequences of proteins named here, by UniProt entry; tags and fusion partners are left off.
UniProt Q8VD66, whole entry: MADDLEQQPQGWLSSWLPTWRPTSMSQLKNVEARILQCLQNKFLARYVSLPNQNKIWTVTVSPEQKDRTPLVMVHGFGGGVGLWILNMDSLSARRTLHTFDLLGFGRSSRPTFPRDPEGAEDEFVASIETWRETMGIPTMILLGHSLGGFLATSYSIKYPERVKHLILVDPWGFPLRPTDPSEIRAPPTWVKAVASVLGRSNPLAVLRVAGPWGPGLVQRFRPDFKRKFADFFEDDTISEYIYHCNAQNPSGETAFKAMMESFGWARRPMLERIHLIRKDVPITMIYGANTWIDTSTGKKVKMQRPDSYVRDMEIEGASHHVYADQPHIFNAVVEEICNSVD

Each compound was assayed against (Lyso)-N-acylphosphatidylethanolamine lipase (Mus musculus) (UniProt Q8VD66) (assay: ABHD4 inhibitors, primary screen, biochemical, fluorescence polarization, mouse (AID 720543;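 note: 0% = plate median of compound wells and 100% = S159A mutant with DMSO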)). Conditions: purified mABHD4, FP-Rh probe fluorescence polarization; at 8.92 µM; stronger effect = higher value.
Outline: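 assay system = mABHD4 protein | compound dosing = single nominal dose of 8.92 µM, 0.89% DMSO final | read-out basis = percent inhibition of probe binding, normalized to plate controls | schedule = Enzyme–compound pre-incubation 45 min, then probe 60 min, both 25 °C | detection = fluorescence polarization, excitation 525 nm, emission 598 nm, BODIPY TMR filters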

| SMILES | inhibition |
| --- | --- |
| CCC(=O)N(c1ccccc1)C1(COC)CCN(CCc2cccs2)CC1 | inactive: -0.77% |
| CCC(=O)N(c1ccccc1)C1(COC)CCN(CCn2nnn(CC)c2=O)CC1 | inactive: 7.99% |
